# What was measured:
# [1] = acidic versus neutral aqueous conditions
# [2] = ref Larraufie et al., 2015; cited from earlier work
# [3] = system: SUDHL6 subcutaneous xenografts; test: IKE efficacy study, tumor volume; assay type: in vivo, mouse; conditions: starting from day 9 of treatment
smiles,measurement,setting,value
"CC(C)Oc1ccc(C(=O)Cn2ccnc2)cc1-n1c(CN2CCN(C(=O)COc3ccc(Cl)cc3)CC2)nc2ccccc2c1=O [IKE, imidazole ketone erastin]",aqueous solubility,[1],"soluble in acidic aqueous conditions, but not to the same degree in neutral aqueous conditions"
same,water solubility,[2],intermediate
same,tumor growth (fold change of tumor volume vs day 0),[3]; 23 mg/kg IKE IP once daily,significant decrease in tumor growth
same,tumor growth (fold change of tumor volume vs day 0),[3]; 40 mg/kg IKE IP once daily,significant decrease in tumor growth

# Reference: publication PMC6525071 (Cell chemical biology, 2019)
